From publication PMC12102759 (Protein Science : A Publication of the Protein Society, 2025)

What follows are sequences tested on YES SH3.
Assay type: binding, human

Sequence	PSSM value of the single amino acid variant (DMS by phage display)
TSSIQSRPLPSPPKFT Q5N (TSSINSRPLPSPPKFT)	0.2346
TSSIQSRPLPSPPKFT Q5P (TSSIPSRPLPSPPKFT)	0.1012
TSSIQSRPLPSPPKFT Q5Q	0.04456
TSSIQSRPLPSPPKFT Q5R (TSSIRSRPLPSPPKFT)	0
TSSIQSRPLPSPPKFT Q5S (TSSISSRPLPSPPKFT)	0.03028
TSSIQSRPLPSPPKFT Q5T (TSSITSRPLPSPPKFT)	0.03107
TSSIQSRPLPSPPKFT Q5V (TSSIVSRPLPSPPKFT)	0.005919
TSSIQSRPLPSPPKFT Q5W (TSSIWSRPLPSPPKFT)	0.07274
TSSIQSRPLPSPPKFT Q5Y (TSSIYSRPLPSPPKFT)	0.02417
TSSIQSRPLPSPPKFT R7A (TSSIQSAPLPSPPKFT)	0.05268
TSSIQSRPLPSPPKFT R7D (TSSIQSDPLPSPPKFT)	0.04382
TSSIQSRPLPSPPKFT R7E (TSSIQSEPLPSPPKFT)	0.02661
TSSIQSRPLPSPPKFT R7F (TSSIQSFPLPSPPKFT)	0.01952
TSSIQSRPLPSPPKFT R7G (TSSIQSGPLPSPPKFT)	0.03162
TSSIQSRPLPSPPKFT R7H (TSSIQSHPLPSPPKFT)	0.1035
TSSIQSRPLPSPPKFT R7I (TSSIQSIPLPSPPKFT)	0
TSSIQSRPLPSPPKFT R7K (TSSIQSKPLPSPPKFT)	0.1916
TSSIQSRPLPSPPKFT R7L (TSSIQSLPLPSPPKFT)	0.01345
TSSIQSRPLPSPPKFT R7M (TSSIQSMPLPSPPKFT)	0.2077
TSSIQSRPLPSPPKFT R7N (TSSIQSNPLPSPPKFT)	0.002421
TSSIQSRPLPSPPKFT R7P (TSSIQSPPLPSPPKFT)	0
TSSIQSRPLPSPPKFT R7Q (TSSIQSQPLPSPPKFT)	0.008905
TSSIQSRPLPSPPKFT R7R	0.05251

Sequence	PSSM value of the single amino acid variant (DMS by phage display)
TSSIQSRPLPSPPKFT R7S (TSSIQSSPLPSPPKFT)	0.007591
TSSIQSRPLPSPPKFT R7T (TSSIQSTPLPSPPKFT)	0.1212
TSSIQSRPLPSPPKFT R7V (TSSIQSVPLPSPPKFT)	0.004412
TSSIQSRPLPSPPKFT R7W (TSSIQSWPLPSPPKFT)	0.105
TSSIQSRPLPSPPKFT R7Y (TSSIQSYPLPSPPKFT)	0.007554
TSSIQSRPLPSPPKFT S2A (TASIQSRPLPSPPKFT)	0.04994
TSSIQSRPLPSPPKFT S2D (TDSIQSRPLPSPPKFT)	0.02893
TSSIQSRPLPSPPKFT S2E (TESIQSRPLPSPPKFT)	0.04579
TSSIQSRPLPSPPKFT S2F (TFSIQSRPLPSPPKFT)	0.005213
TSSIQSRPLPSPPKFT S2G (TGSIQSRPLPSPPKFT)	0.2371
TSSIQSRPLPSPPKFT S2H (THSIQSRPLPSPPKFT)	0.001057
TSSIQSRPLPSPPKFT S2I (TISIQSRPLPSPPKFT)	0.01043
TSSIQSRPLPSPPKFT S2K (TKSIQSRPLPSPPKFT)	0
TSSIQSRPLPSPPKFT S2L (TLSIQSRPLPSPPKFT)	0.008733
TSSIQSRPLPSPPKFT S2M (TMSIQSRPLPSPPKFT)	0.01061
TSSIQSRPLPSPPKFT S2N (TNSIQSRPLPSPPKFT)	0.01206
TSSIQSRPLPSPPKFT S2P (TPSIQSRPLPSPPKFT)	0.01873
TSSIQSRPLPSPPKFT S2Q (TQSIQSRPLPSPPKFT)	0.002949
TSSIQSRPLPSPPKFT S2R (TRSIQSRPLPSPPKFT)	0.009598
TSSIQSRPLPSPPKFT S2S	0.04758
TSSIQSRPLPSPPKFT S2T (TTSIQSRPLPSPPKFT)	0.2103
TSSIQSRPLPSPPKFT S2V (TVSIQSRPLPSPPKFT)	0.00272
TSSIQSRPLPSPPKFT S2W (TWSIQSRPLPSPPKFT)	0.2905

Sequence	PSSM value of the single amino acid variant (DMS by phage display)
TSSIQSRPLPSPPKFT S2Y (TYSIQSRPLPSPPKFT)	0.007735
TSSIQSRPLPSPPKFT S3A (TSAIQSRPLPSPPKFT)	0.01428
TSSIQSRPLPSPPKFT S3D (TSDIQSRPLPSPPKFT)	0
TSSIQSRPLPSPPKFT S3E (TSEIQSRPLPSPPKFT)	0
TSSIQSRPLPSPPKFT S3F (TSFIQSRPLPSPPKFT)	0.03592
TSSIQSRPLPSPPKFT S3G (TSGIQSRPLPSPPKFT)	0.003489
TSSIQSRPLPSPPKFT S3H (TSHIQSRPLPSPPKFT)	0.02032
TSSIQSRPLPSPPKFT S3I (TSIIQSRPLPSPPKFT)	0.4848
TSSIQSRPLPSPPKFT S3K (TSKIQSRPLPSPPKFT)	0.0006253
TSSIQSRPLPSPPKFT S3L (TSLIQSRPLPSPPKFT)	0.227
TSSIQSRPLPSPPKFT S3M (TSMIQSRPLPSPPKFT)	0.02226
TSSIQSRPLPSPPKFT S3N (TSNIQSRPLPSPPKFT)	0.009116
TSSIQSRPLPSPPKFT S3P (TSPIQSRPLPSPPKFT)	0.00677
TSSIQSRPLPSPPKFT S3Q (TSQIQSRPLPSPPKFT)	0.03591
TSSIQSRPLPSPPKFT S3R (TSRIQSRPLPSPPKFT)	0
TSSIQSRPLPSPPKFT S3S	0.02815
TSSIQSRPLPSPPKFT S3T (TSTIQSRPLPSPPKFT)	0.0229
TSSIQSRPLPSPPKFT S3V (TSVIQSRPLPSPPKFT)	0.03603
TSSIQSRPLPSPPKFT S3W (TSWIQSRPLPSPPKFT)	0.008472
TSSIQSRPLPSPPKFT S3Y (TSYIQSRPLPSPPKFT)	0.04396
TSSIQSRPLPSPPKFT S6A (TSSIQARPLPSPPKFT)	0.009111
TSSIQSRPLPSPPKFT S6D (TSSIQDRPLPSPPKFT)	0.04418
TSSIQSRPLPSPPKFT S6E (TSSIQERPLPSPPKFT)	0.1169

Sequence	PSSM value of the single amino acid variant (DMS by phage display)
TSSIQSRPLPSPPKFT S6F (TSSIQFRPLPSPPKFT)	0.004503
TSSIQSRPLPSPPKFT S6G (TSSIQGRPLPSPPKFT)	0.1396
TSSIQSRPLPSPPKFT S6H (TSSIQHRPLPSPPKFT)	0.01283
TSSIQSRPLPSPPKFT S6I (TSSIQIRPLPSPPKFT)	0.03658
TSSIQSRPLPSPPKFT S6K (TSSIQKRPLPSPPKFT)	0.01414
TSSIQSRPLPSPPKFT S6L (TSSIQLRPLPSPPKFT)	0.08273
TSSIQSRPLPSPPKFT S6M (TSSIQMRPLPSPPKFT)	0.2397
TSSIQSRPLPSPPKFT S6N (TSSIQNRPLPSPPKFT)	0.03439
TSSIQSRPLPSPPKFT S6P (TSSIQPRPLPSPPKFT)	0.02186
TSSIQSRPLPSPPKFT S6Q (TSSIQQRPLPSPPKFT)	0.004525
TSSIQSRPLPSPPKFT S6R (TSSIQRRPLPSPPKFT)	0
TSSIQSRPLPSPPKFT S6S	0.03693
TSSIQSRPLPSPPKFT S6T (TSSIQTRPLPSPPKFT)	0.01059
TSSIQSRPLPSPPKFT S6V (TSSIQVRPLPSPPKFT)	0.03199
TSSIQSRPLPSPPKFT S6W (TSSIQWRPLPSPPKFT)	0.01116
TSSIQSRPLPSPPKFT S6Y (TSSIQYRPLPSPPKFT)	0.1483
TSSIQSRPLPSPPKFT S11A (TSSIQSRPLPAPPKFT)	0.01542
TSSIQSRPLPSPPKFT S11D (TSSIQSRPLPDPPKFT)	0.06458
TSSIQSRPLPSPPKFT S11E (TSSIQSRPLPEPPKFT)	0.5023
TSSIQSRPLPSPPKFT S11F (TSSIQSRPLPFPPKFT)	0.0222
TSSIQSRPLPSPPKFT S11G (TSSIQSRPLPGPPKFT)	0.0003669
TSSIQSRPLPSPPKFT S11H (TSSIQSRPLPHPPKFT)	0.03933
